pIC50: −log10 of the molar value. Counter-ions that a name gives are not always drawn. Where only a bound is given, the exact number is not on record here.

Amino acid sequences for entries named in this document (tags omitted).
UniProt P21397, whole entry: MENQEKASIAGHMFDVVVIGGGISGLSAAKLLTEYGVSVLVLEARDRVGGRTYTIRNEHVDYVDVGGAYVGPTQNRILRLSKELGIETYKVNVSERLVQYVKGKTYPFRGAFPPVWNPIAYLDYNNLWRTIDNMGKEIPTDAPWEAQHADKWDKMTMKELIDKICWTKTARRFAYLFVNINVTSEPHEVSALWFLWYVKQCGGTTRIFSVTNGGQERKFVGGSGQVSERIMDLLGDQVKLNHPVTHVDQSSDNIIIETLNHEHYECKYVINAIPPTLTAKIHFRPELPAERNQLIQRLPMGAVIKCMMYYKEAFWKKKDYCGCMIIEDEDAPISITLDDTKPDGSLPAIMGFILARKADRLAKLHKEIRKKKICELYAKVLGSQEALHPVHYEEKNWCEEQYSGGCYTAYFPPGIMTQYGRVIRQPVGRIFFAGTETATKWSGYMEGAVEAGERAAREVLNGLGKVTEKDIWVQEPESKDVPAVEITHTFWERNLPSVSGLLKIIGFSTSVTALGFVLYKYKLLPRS
UniProt P27338, whole entry: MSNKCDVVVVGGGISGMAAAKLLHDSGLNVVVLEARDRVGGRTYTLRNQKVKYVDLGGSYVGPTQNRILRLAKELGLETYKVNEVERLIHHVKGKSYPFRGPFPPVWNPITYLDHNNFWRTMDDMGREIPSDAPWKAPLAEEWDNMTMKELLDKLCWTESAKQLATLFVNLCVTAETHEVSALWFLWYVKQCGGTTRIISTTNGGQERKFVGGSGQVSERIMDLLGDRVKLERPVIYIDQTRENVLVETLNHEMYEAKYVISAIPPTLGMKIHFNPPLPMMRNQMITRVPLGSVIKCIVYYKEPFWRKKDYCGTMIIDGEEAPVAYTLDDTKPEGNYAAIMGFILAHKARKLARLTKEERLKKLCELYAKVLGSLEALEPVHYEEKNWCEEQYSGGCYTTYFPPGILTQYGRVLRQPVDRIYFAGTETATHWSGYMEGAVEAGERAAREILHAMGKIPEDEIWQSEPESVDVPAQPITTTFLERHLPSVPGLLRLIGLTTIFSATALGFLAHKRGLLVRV

Among the data in patent US9487511B2, “Cyclopropanamine compound and use thereof” (Takeda Pharmaceutical Company Limited, priority 2014, dated 2016) are IC50 values, retold here.

In one assay the target is MAO-A enzyme (Homo sapiens (Human), UniProt P21397). Kind of assay: Measurement of MAO-A inhibitory activity (MAO-Glo Assay). Format: biochemical.
The target in another assay is MAO-B enzyme (Homo sapiens (Human), UniProt P27338). The experiment in a line: Measurement of MAO-B inhibitory activity (MAO-Glo Assay). Format: biochemical.

One may read the pIC50 as −log10 of the IC50, conventionally taken in molar units. For the compound `O=C(NC1CCOCC1)c1csc([C@@H]2C[C@H]2NCC2CC2)c1` [Example 120, 5-((1R,2R)-2-((cyclopropylmethyl)amino)cyclopropyl)-N-(tetrahydro-2H-pyran-4-yl)thiophene-3-carboxamide], the pIC50 against MAO-A enzyme and against MAO-B enzyme was less than 4.00 in each case.

Turning to `O=C(NC1CCOCC1)c1csc([C@H]2C[C@@H]2NCC2CC2)c1` [Example 125, 5-((1S,2S)-2-((cyclopropylmethyl)amino)cyclopropyl)-N-(tetrahydro-2H-pyran-4-yl)thiophene-3-carboxamide hydrochloride], the pIC50 at MAO-A enzyme and at MAO-B enzyme was less than 4.00 in each case.
